Test system: MM cell lines RPMI8226 and MM1.S
Settings: low dose, associated with DR5 upregulation, data not shown

Structure (SMILES): CC(C)C[C@H](NC(=O)[C@H](Cc1ccccc1)NC(=O)c1cnccn1)B(O)O [Bortezomib]
- induction of apoptosis: minor induction of apoptosis

Reference: patent US20180344768A1, “NK CELL-BASED THERAPY” (Onkimmune Limited, priority 2016, published 2018)
